Assay results as given in paper PMC12751000, “Dual Agonist/Antagonist Modulation of α9-Containing Nicotinic Acetylcholine Receptors by 2‑Ammoniumethyl Ethers of Stilbenol and Stilbenol Analogues” (Journal of Medicinal Chemistry, 2025).

Amino acid sequences for entries named in this document (tags omitted). Residues count along the entry.
UniProt Q9GZZ6, 25-450: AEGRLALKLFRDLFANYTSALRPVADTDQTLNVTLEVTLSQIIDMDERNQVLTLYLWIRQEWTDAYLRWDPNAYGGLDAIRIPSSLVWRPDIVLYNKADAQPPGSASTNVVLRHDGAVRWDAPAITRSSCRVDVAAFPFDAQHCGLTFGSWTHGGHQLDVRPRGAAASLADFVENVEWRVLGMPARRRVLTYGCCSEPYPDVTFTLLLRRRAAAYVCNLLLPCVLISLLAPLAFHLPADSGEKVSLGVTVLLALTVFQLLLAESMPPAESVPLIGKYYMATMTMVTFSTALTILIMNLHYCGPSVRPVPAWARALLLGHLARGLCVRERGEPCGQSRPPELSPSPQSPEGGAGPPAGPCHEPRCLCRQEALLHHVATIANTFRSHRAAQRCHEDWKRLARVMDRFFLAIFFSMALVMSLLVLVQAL
UniProt Q9UGM1, 26-479 limits assumed: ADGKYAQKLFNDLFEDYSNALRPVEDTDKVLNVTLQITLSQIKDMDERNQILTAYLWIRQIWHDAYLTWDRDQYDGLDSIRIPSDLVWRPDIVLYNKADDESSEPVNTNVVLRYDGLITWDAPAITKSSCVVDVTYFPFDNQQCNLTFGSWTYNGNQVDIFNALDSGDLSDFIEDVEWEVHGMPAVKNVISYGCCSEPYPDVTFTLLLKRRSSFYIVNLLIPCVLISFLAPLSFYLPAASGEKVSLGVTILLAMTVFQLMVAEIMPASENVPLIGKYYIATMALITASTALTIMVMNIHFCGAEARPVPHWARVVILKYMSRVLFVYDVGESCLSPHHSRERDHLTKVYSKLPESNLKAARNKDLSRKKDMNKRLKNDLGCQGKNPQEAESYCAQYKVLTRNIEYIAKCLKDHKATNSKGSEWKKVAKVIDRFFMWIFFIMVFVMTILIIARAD

Columns and labels:
hα9α10 nAChRs [1] = target: T1, hα9α10 nAChRs (Homo sapiens, UniProt Q9GZZ6+Q9UGM1); test: Two-electrode voltage clamp, compound-evoked currents (compound applied alone) at hα9α10 nAChRs in Xenopus laevis oocytes; format: cell-based
T1 construct: host or cells: Xenopus laevis oocytes, cRNA-injected (α9:α10 cRNA ratio 1:1)

hα9α10 nAChRs [2] = target: T1, hα9α10 nAChRs; test: Two-electrode voltage clamp, inhibition of ACh-evoked currents at hα9α10 nAChRs expressed in Xenopus laevis oocytes; format: cell-based; details: 6 μM ACh

Compound | n H (Hill coefficient of activation) (hα9α10 nAChRs [1]) | n H (Hill coefficient of inhibition) (hα9α10 nAChRs [2])
CC[N+](CC)(CC)CCOc1ccc(CCc2ccccc2)cc1 [Compound 4] | 1.2 | –
C[N+](CCOc1ccc(/C=C/c2ccccc2)cc1)(Cc1ccccc1)Cc1ccccc1 [Compound 13] | 2.7 | 2.8
